From US9339423B2, “Absorbent article” (UNICHARM CORPORATION, priority 2012, dated 2016)
Read-outs that look alike come from different tables or passages of the source.

Test: Water solubility, visual evaluation after 24 hours
Text: As used herein, the term “solubility” in regard to water solubility includes cases where the sample completely dissolves in deionized water to form a homogeneous mixture, and cases where the sample is completely emulsified. As used herein, “completely” means that no mass of the sample remains in the deionized water.

[1] = in 100 g of water at 25° C., 24 hours

Substance | Water solubility [1] | also measured
Isopropyl citrate | – | Water solubility (g): 20< g
Octadecanoic acid (C18) monoester of butylene glycol [COMPOL BS] | <0.05 g | –
Dodecanoic acid (C12) monoester of butylene glycol [COMPOL BL] | <0.05 g | –
Polyoxybutylenepolyoxypropylene glycol [UNIOL PB700] | – | Water solubility: <0.05 g
